Consider 7 molecules from PubChem BioAssay (Tox21).

Protein sequences, listed by entry. Tags and fused reporters are not part of them.
UniProt P04150, whole entry: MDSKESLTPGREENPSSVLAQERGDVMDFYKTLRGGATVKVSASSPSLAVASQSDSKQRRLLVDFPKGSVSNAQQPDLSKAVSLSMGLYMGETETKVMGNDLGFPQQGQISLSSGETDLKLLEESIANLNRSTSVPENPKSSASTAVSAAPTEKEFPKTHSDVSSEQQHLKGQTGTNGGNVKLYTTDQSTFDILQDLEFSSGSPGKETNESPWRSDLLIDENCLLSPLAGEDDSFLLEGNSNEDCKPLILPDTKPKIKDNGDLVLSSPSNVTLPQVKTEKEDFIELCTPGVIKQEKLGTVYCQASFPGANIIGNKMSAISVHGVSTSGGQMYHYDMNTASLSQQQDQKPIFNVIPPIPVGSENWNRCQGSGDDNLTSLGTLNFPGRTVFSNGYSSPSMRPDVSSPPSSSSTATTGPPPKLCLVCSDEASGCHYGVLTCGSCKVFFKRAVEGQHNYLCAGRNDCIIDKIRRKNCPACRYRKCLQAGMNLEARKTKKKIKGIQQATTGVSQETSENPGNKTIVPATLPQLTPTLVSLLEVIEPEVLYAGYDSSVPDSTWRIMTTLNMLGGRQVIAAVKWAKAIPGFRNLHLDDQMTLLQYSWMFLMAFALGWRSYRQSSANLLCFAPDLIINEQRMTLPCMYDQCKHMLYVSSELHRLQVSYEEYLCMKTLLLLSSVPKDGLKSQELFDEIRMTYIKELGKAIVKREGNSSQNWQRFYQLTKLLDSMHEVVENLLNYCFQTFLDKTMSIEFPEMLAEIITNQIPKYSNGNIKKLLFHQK

Assay [1] is described as follows: qHTS assay for small molecules that induce genotoxicity in human embryonic kidney cells expressing luciferase-tagged ATAD5 (AID 651632). Note: % is set by controls: 0 for no effect and ±100 for the full control effect; nearly all actives have a fitted effect of over 15% in size. The conditions noted are these: HEK293T ATAD5-luciferase induction, 16 h; at 39.1 µM (top of the series). The essentials:
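HEK293T cells carrying luciferase-tagged ATAD5 were given compound or DMSO vehicle and incubated 16 hr at 37C, 5% CO2. Luciferase activity was read after 30 min at room temperature with Amplite; a rise signals genotoxic stress.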
(In qHTS, concentration-response curves come from the screen itself.)

The nature of assay [2]: qHTS assay to identify small molecule antagonists of the estrogen receptor alpha (ER-alpha) signaling pathway using the BG1 cell line - cell viability counter screen (AID 743081).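 Note: compound given together with 17beta-estradiol as the ER stimulus; nearly all actives have a fitted effect of over 45% in size.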 Note: potency is the fitted concentration of half-maximal effect.
Assay [3] in a line: qHTS assay to identify small molecule agonists of H2AX - cell viability counter screen (AID 1224847; calls by dose curve; note: potency is the fitted concentration of half-maximal effect; nearly all actives have a fitted effect of over 30% in size). The conditions noted are these: CHO-K1 viability, CellTiter-Glo luminescence, 3 h. Put shortly: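 Quantitative HTS viability measurement: CHO-K1 wild-type cells in serum (10% FBS) medium, short 3 hr drug exposure at 37C with 0.76% DMSO, CellTiter-Glo luminescent detection.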

In assay [4] the target is Glucocorticoid receptor (Homo sapiens) (UniProt P04150). The assay can be described thus: qHTS assay to identify small molecule antagonists of the glucocorticoid receptor (GR) signaling pathway (AID 720692; active = well fitted inhibition curve with a large enough effect in the signal ratio in the repeat runs, not every such curve was filed as active; the % refers to the signal ratio; note: % is set by controls: 0 for no effect and ±100 for the full control effect). The conditions noted are these: GR-bla HeLa, beta-lactamase FRET ratio, dexamethasone-stimulated, 18 h; at 58.5 µM (top of the series).
A short description of assay [5]: qHTS assay to identify small molecule agonists of the AP-1 signaling pathway (AID 1159526; calls by dose curve; note: % is set by controls: 0 for no effect and ±100 for the full control effect). Particulars: ME-180 (cervical carcinoma) AP-1-bla reporter, beta-lactamase FRET ratio, 5 h; at 76.8 µM (top of the series).
Assay [6] can be described thus: qHTS assay to identify small molecule antagonists of the estrogen related receptor (ERR) signaling pathway from Tox21 library - cell viability counter screen (AID 1224834). Note: nearly all actives have a fitted effect of over 30% in size. Note: potency is the fitted concentration of half-maximal effect. Put shortly:
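ERR reporter cells, 2,000 per well, rested 6 h, then exposed to compound in DMSO for 17.5 hours at 37 C. Viability read as fluorescence after 30 min with CellTiter-Fluor.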

Assay [7] in a line: A CellTox Green Cytotoxicity Assay to monitor cytotoxicity in HepG2 cells - 40 hour (AID 1224879). Note: % is set by controls: 0 for no effect and ±100 for the full control effect; nearly all actives have a fitted effect of over 40% in size. The essentials:
(§1)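 HepG2 cells, 600/well, preincubated 5 h with CellTox Green dye, then exposed to Tox21 compounds in DMSO at 37 C for up to 40 h. Dead-cell DNA fluorescence read at the indicated time point.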

Assay [8] can be described thus: qHTS assay for small molecules that induce genotoxicity in human embryonic kidney cells expressing luciferase-tagged ATAD5 - cell viability (AID 651634; calls by dose curve; note: potency is the fitted concentration of half-maximal effect; nearly all actives have a fitted effect of over 25% in size). Particulars: HEK293T ATAD5-luc cells viability, CellTiter-Fluor, 15.5 h. The essentials: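 HEK293T cells carrying luciferase-tagged ATAD5, 2,000 cells/well, exposed to compound for 15.5 hr at 37C. Viability read as live-cell protease activity by CellTiter-Fluor fluorescence after 30 min at 37C.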

The nature of assay [9]: qHTS assay for identifying genotoxic compounds that show differential cytotoxicity against isogenic chicken DT40 cell lines with known DNA damage response pathways - Rev3 mutant cell line (AID 743014). Note: potency is the fitted concentration of half-maximal effect; nearly all actives have a fitted effect of over 55% in size. Particulars: chicken DT40 Rev3-/- viability, CellTiter-Glo, 40 h.
The nature of assay [10]: qHTS assay to identify small molecule antagonists of the androgen receptor (AR) signaling pathway using the MDA cell line - cell viability counter screen (AID 743041; note: potency is the fitted concentration of half-maximal effect; nearly all actives have a fitted effect of over 45% in size). Particulars: MDA-kb2 viability, CellTiter-Fluor, 16 h; cells co-treated with R1881 androgen agonist. The essentials: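 Viability counter screen run alongside the AR antagonist reporter: cells seeded 5 h before compound, R1881 added, 16 h incubation at 37C without CO2, fluorescent CellTiter-Fluor signal quantified.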

The nature of assay [11]: qHTS assay to identify small molecule agonists of the estrogen receptor beta (ER-beta) signaling pathway - cell viability counter screen (AID 1259380). Note: potency is the fitted concentration of half-maximal effect; nearly all actives have a fitted effect of over 30% in size. The conditions noted are these: ER-beta-bla HEK293T viability, CellTiter-Glo luminescence, 16 h. Put shortly: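 ER-beta-UAS-bla HEK293T cells in medium with 2% charcoal-stripped FBS, pre-incubated 6 hr, then treated 16 hr at 37C. Cytotoxicity read in the same wells by CellTiter-Glo luminescence after 30 min at room temperature.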

The nature of assay [12]: qHTS assay to identify small molecule agonists of the estrogen receptor alpha (ER-alpha) signaling pathway in the presence of an antagonist - cell viability counter screen (AID 1259386).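 Note: potency is the fitted concentration of half-maximal effect; cells exposed to compounds for 22 h at 37 °C before the viability read; nearly all actives have a fitted effect of over 30% in size.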 Put shortly: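 Cell viability in VM7Luc4E2 cells (endogenous full-length ER-alpha) measured by CellTiter-Fluor fluorescence in the same wells as the luciferase screen. Cells pre-cultured 5 days in charcoal-stripped serum, then treated 22 h with compounds at 15 concentrations plus 10.0nM ICI-182,780.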

Assay [13] is described as follows: A CellTox Green Cytotoxicity Assay to monitor cytotoxicity in HepG2 cells - 0 hour (AID 1224882). Note: % is set by controls: 0 for no effect and ±100 for the full control effect; nearly all actives have a fitted effect of over 35% in size. The conditions noted are these: CellTox Green fluorescence; at 76.8 µM (top of the series). The essentials: as §1
Assay [14] is described as follows: qHTS assay to identify small molecule antagonists of the sonic hedgehog signaling (Shh) pathway - cell viability counter screen (AID 1259367). Note: potency is the fitted concentration of half-maximal effect; nearly all actives have a fitted effect of over 55% in size. The conditions noted are these: NIH/3T3 Gli1-Luc viability, CellTiter-Fluor, 24 h. Put shortly: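 After a 4 hr settling period, 3T3 Gli1-Luc cells were treated with DMSO-dissolved chemicals and conditioned medium, kept 24 hr at 37C in 5% CO2, and assayed for viability by CellTiter-Fluor fluorescence following 1 hr reagent incubation.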

The list shows a part of the results, in another mix than the full data. Results filed as inconclusive are left out. The source made the active and inactive calls. Unless noted, calls come from the whole dose curve; as a rule, active = well fitted curve in the direction sought with a large enough effect in the repeat runs; inconclusive = weak or mixed curves; inactive = no such curve, though single readings can be large; an effect the other way counts as inactive or inconclusive.

`C/C1=C2N=C(/C=C3N=C(/C(C)=C4\[N-][C@@](C)([C@@H]5N=C1[C@](C)(CCC(=O)NC[C@@H](C)OP(=O)([O-])O[C@H]1[C@@H](O)[C@@H](n6cnc7cc(C)c(C)cc76)O[C@@H]1CO)[C@H]5CC(N)=O)[C@@](C)(CC(N)=O)[C@@H]4CCC(N)=O)[C@@](C)(CC(N)=O)[C@@H]\3CCC(N)=O)C(C)(C)[C@@H]/2CCC(N)=O.[C-]#N.[Co+3]`: the activation in assay [1] was inactive: -14.2%. The Potency result in assay [2] was “inactive”. Further, the Potency in assay [3] was active: 43.8 µM.
For the molecule `O=C(OC1CN2CCC1CC2)c1ccccc1` (configuration not stated), the activity change, negative = inhibition in assay [4] was inactive: -11.2%.
On to `COP(=S)(Cl)OC`, for which the activation in [5] is inactive: 18.4%.
Consider `CCOP(=S)(CC)Sc1ccccc1` (configuration not stated), for which the activity change, negative = inhibition in [4] is inactive: 11.3%.
As to `CCOP(=O)(CC)Oc1ccc([N+](=O)[O-])cc1` (configuration not stated), the Potency in [6] was active: 11.9 µM. The Potency result in assay [7] is “inactive”.
With `Cc1cc([N+](=O)[O-])c(O)c([N+](=O)[O-])c1`, the Potency in [8] is active: 30.9 µM; in assay [9], active: 49.1 µM; in assay [10], active: 49.1 µM; in [2] it was active: 30.9 µM; in [11] it was active: 30.9 µM; in assay [12] it was active: 49.1 µM.
With `CCN(CC)CCCl`, the Potency entry in [6] is “inactive”. In assay [13], the cytotoxicity is inactive: 1.06%. For the same molecule, the Potency in assay [14] was active: 12.4 µM.
